Data reported in paper PMC5570423, “Structural characterisation of TNRC6A nuclear localisation signal in complex with importin-alpha” (PLoS ONE, 2017).

Biological target: mImpα1ΔIBB
Experiment: Solid phase plate binding assay
Set-up: species or system mouse
Details: MaxiSorp plates coated with 25 nM GST-cNLS, serial dilutions of S-tagged mImpα1ΔIBB, 1 hr at 4°C, S-protein-HRP/TMB read at 450 nm, duplicate, mean with standard error, one-site specific binding (Prism), read-out: Kd apparent
Experimental: Solid phase binding assays were performed as previously described, with cross-linking omitted. MaxiSorp plates (Nunc) were coated with 25 nM of GST-cNLS or GST in coating buffer (PBS supplemented with 0.2 mM phenylmethylsulfonyl fluoride (PMSF) and 2 mM DTT). Plates were blocked overnight in coating buffer supplemented with 3% BSA and 0.1% Tween 20. Serial dilutions of S-tagged mImpα1ΔIBB were added and incubated for 1 hr at 4°C. Plates were washed 3 times by immersion in coating buffer supplemented with 0.1% Tween 20, and detected with S-protein-HRP conjugate (Novagen) using 3,3’, 5, 5’-tetramethylbenzidine as a substrate. The reaction was stopped by the addition of 1 M HCl, and the signal read at 450 nm using a PHERAstar plate reader (BMG LABTECH).

PKKKRKV [GST-SV40 TAg cNLS, GST fusion of the prototypic monopartite SV40 large T antigen cNLS; positive control]
Kd: 12.5 ± 1.9 nM
